Measurements: ChEMBL document CHEMBL5528023, “Discovery of a CB2 and 5-HT1A receptor dual agonist for the treatment of depression and anxiety” (Eur J Med Chem, 2024)

The chains behind the UniProt entries cited, without tags or fusion partners.
UniProt P34972, whole entry: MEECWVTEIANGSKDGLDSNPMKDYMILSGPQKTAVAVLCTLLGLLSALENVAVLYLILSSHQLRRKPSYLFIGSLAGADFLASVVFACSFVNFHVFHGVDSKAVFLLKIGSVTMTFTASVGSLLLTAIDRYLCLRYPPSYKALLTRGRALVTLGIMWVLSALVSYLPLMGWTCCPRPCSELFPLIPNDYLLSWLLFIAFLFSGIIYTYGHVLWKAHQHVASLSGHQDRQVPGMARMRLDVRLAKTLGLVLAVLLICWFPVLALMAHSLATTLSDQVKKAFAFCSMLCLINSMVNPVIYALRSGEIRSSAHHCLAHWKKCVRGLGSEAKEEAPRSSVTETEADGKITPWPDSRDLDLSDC

Target: Cannabinoid receptor 2 (Homo sapiens, UniProt P34972)
Experiment: Agonist activity at human CB2 receptor expressed in CHO cells assessed as forskolin-stimulated cAMP formation preincubated with compound for 10 mins followed by forskolin induction and measured after 30 mins by HTRF analysis
Format: functional, cell-based

With C=C(C)[C@@H]1CCC(C)=C[C@H]1c1c(O)cc(CCCCC)cc1O [CANNABIDIOL] the EC50 was > 10 nM.
